Results as given in PubChem BioAssay AID652025 (National Center for Advancing Translational Sciences (NCATS), 2013).
The list shows a part of the results, in another mix than the full data. Active and inactive are the calls of the source. Rule as the data show it: active = activation above about 50%; inconclusive = mostly about 30% to 49%; inactive = weaker than that.

Experiment: qHTS of IL-2 Activators; also: 0% is about no effect
Conditions: IL-2 activation reporter assay, cell-based qHTS; active compounds read high; in transgenic mouse T cells; stimulated with anti-CD3/CD4/CD28 beads
Text: The adaptive immune response against any infectious agent begins with the activation of an antigen specific T cell. This relatively rare and inert ("naive") T cell undergoes a massive proliferative expansion and differentiation process to generate sufficient number of potent pathogen-specific effector T cells. The effector T cells fight the infection by making cytokines and helping other cells to become fully armed as well. If any naive T cell has antigen receptors (TCRs) that can be activated by self peptides, then a variety of regulatory mechanisms kick in to prevent this cell from performing to its full potential. These processes collectively constitute the phenomenon of immunological tolerance and their failure leads to autoimmunity. One arm of tolerance involves generation of biochemical negative feedback downstream of the TCR (tuning). This is especially relevant to self antigens present in the body over long periods of time (chronic), which form the bulk of our proteome. […]
4 microL (750 cells/well) of unstimulated transgenic mouse T cells (columns 1-3,5-48) are dispensed into Aurora LoBase, black clear-bottom 1536-well assay plates; column 4 receives an identical concentration of transgenic memory T cells as a non-tolerant control. […] EGFP and DsRed signal are then detected using an Acumen eX3 Explorer fluorescent plate cytometer. […]

SMILES	activation
CCC(=O)N(c1ccccc1)C1(COC)CCN(CCn2nnn(CC)c2=O)CC1	inactive: 0.851%
CCC(=O)N(c1ccccc1)C1(COC)CCN(CCc2cccs2)CC1	inactive: 1.45%
